AlphaSeq binding of Ab-14 heavy chain variants to a spike HR2 peptide

All variants were tested on one target, the spike HR2 peptide PDVDLGDISGINAS (SARS-CoV-2).

Each scFv is VH, a (GGGGS)3 linker, VL, as in the parent Ab-14, and differs from it in the CDRs of the heavy chain only.
VH: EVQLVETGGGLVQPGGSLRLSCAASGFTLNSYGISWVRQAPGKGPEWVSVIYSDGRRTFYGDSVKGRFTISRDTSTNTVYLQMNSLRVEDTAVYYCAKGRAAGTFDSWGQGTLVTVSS
VL: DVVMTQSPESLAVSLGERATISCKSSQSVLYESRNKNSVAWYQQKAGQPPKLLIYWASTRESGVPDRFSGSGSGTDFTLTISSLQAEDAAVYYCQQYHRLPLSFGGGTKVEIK

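Phage display of a naive human antibody library on the peptide gave the parent. This is the validation round: designs drawn from the data on random variants, tested in the same kind of assay. Group labels follow the data file (Ctrl: baseline library sampled from a position-specific scoring matrix, with some repeated check sequences; Rand: our label for a block that the file lists under HC and that is probably the random mutants of the ten best first-round binders; En: ensemble of fine-tuned language models; GP: Gaussian process model; GPLM: also part of the Gaussian process libraries; HC: hill climbing; Gen: genetic algorithm; Gibbs: Gibbs sampling; a sequence that several methods proposed may carry one label only). In AlphaSeq, yeast of one mating type display the scFv and yeast of the other type display the target. The frequency of each diploid, read from paired DNA barcodes, reflects how well the two displayed proteins bind. Each replicate has its own calibration line, from reference interactions of the BCL2 family. Each pool was mated in six replicate cultures.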

Changes read parent residue, position, new residue, counted from the first residue of the VH shown.
Variants here have at most six changes.
Kd is apparent (estimated from mating counts) and averaged on the log scale over replicates with a signal. Smaller is tighter.
An entry "no signal" has no value in the source: the pair was not observed among the diploids in any replicate. This suggests poor binding but is not conclusive.
In the paper, a design with two or fewer of six values counts as a poor binder.

T28D+R56M+G61A+A101T [GPLM_Gibbs]: 1.7 nM (6 of 6 replicates).
G61S+R100A+D106K [Ctrl]: no signal (0 of 6 replicates).
R56E+G61R+T104V [Ctrl]: 240 nM (1 of 6 replicates).
T28S+S53A+S63Q+D106K [GP_HC]: no signal (0 of 6 replicates).
S53A+S63Q+D106K+S107L [GP_HC]: no signal (0 of 6 replicates).
T28E+S31D+G61I+A101L [GP_HC]: 29 nM (3 of 6 replicates).
T28N+R100Q [GPLM_Gen]: 28 nM (5 of 6 replicates).
T28D+A101T+S107V [GPLM_Gen]: 1.0 nM (6 of 6 replicates).
T28D+R56K+A101Q [GP_Gen]: 1.7 nM (6 of 6 replicates).
F59S+G61E+F105K [Ctrl]: 44 nM (5 of 6 replicates).
R56C+A101L [Ctrl]: 410 nM (3 of 6 replicates).
G61S+G99Q+A101L+A102G [Rand]: no signal (0 of 6 replicates).
T28N+S107L [Ctrl]: 23 nM (5 of 6 replicates).
T28D+S63P+R100Q+A101T+S107A [GP_Gibbs]: 4.0 nM (6 of 6 replicates).
T28Q+S53A+R100E+S107K [GP_Gibbs]: 960 pM (6 of 6 replicates).
G26K+A101N [Ctrl]: 190 nM (1 of 6 replicates).
G61S+A101E+D106E [GP_HC]: 1.6 nM (6 of 6 replicates).
G61Q+A101E [Ctrl]: 4.1 nM (5 of 6 replicates).
S31D+G61D+R100K [GP_HC]: 2.8 nM (6 of 6 replicates).
F27H+S31D [Ctrl]: no signal (0 of 6 replicates).
T28S+S31E+S107Q [GPLM_Gen]: 1.3 nM (6 of 6 replicates).
I34R+R100K+G103A+S107G [Ctrl]: no signal (0 of 6 replicates).
T28L+S31E+R100Q [GPLM_Gen]: 5.7 nM (6 of 6 replicates).
T28N+R56E [Ctrl]: 8.3 nM (5 of 6 replicates).
G26K+T28S+S31W+G61I+A101T [GP_Gibbs]: no signal (0 of 6 replicates).
T28D+G61I+A101E+D106N+S107M [GP_HC]: 1.9 nM (6 of 6 replicates).
S31Q+G61S+D62K+T104F [Rand]: no signal (0 of 6 replicates).
T28N+S31E+S53A+G61A+R100E+S107F [En_HC]: 1.9 nM (6 of 6 replicates).
D62Q+A102D+S107N [Ctrl]: no signal (0 of 6 replicates).
S53A+S107F [GPLM_Gen]: 3.5 nM (6 of 6 replicates).
T28D+R56M+G61A+A101N+G103F [Ctrl]: no signal (0 of 6 replicates).
T28G+G61Q+R100K+A101T [GP_Gibbs]: 32 nM (6 of 6 replicates).
T28D+S31D+R100K [GP_HC]: no signal (0 of 6 replicates).
S53A+F105K [GP_HC]: no signal (0 of 6 replicates).
S31E+R56K+G61S+D106T [GP_HC]: 8.7 nM (6 of 6 replicates).
T28D+S31E+S53A+G61I+R100E+S107V [En_HC]: 530 pM (6 of 6 replicates).
T28E+G61I+R100T+A101T [GP_Gibbs]: 580 pM (6 of 6 replicates).
S31D+Y32K+F59V+G103L+D106I [Rand]: no signal (0 of 6 replicates).
G26L+S53A+A101I [Ctrl]: 2.4 nM (1 of 6 replicates).
F27V+S31E+S53C+D54R+G103V+S107Q [Rand]: no signal (0 of 6 replicates).
T28S+G61V+R100K+A101T [GPLM_Gen]: no signal (0 of 6 replicates).
T28V+S31E+R100K+A101T [GPLM_Gibbs]: 4.2 nM (6 of 6 replicates).
S31D+G61I+A101H [GPLM_Gen]: 14 nM (6 of 6 replicates).
S31E+G33S+T58C+G103L [Ctrl]: 3.9 nM (2 of 6 replicates).
T28Q+S31E+G61A [GPLM_Gen]: 1.7 nM (6 of 6 replicates).
F27E+R56I+G61K+K65R+R100S+G103D [Ctrl]: no signal (0 of 6 replicates).
T28E+S31D+G61I+S63T+R100N [GP_HC]: no signal (0 of 6 replicates).
N30E+G61A+S63D+R100S [GP_Gibbs]: 3.4 nM (5 of 6 replicates).
T28E+S31E+A101T+S107T [GPLM_Gen]: 770 pM (6 of 6 replicates).

For reference, 5 entries of the list once more:

changes,group,Kd,detected
T28G+G61Q+R100K+A101T,GP_Gibbs,32 nM,6 of 6
T28E+S31D+G61I+S63T+R100N,GP_HC,no signal,0 of 6
T28D+R56M+G61A+A101N+G103F,Ctrl,no signal,0 of 6
F27H+S31D,Ctrl,no signal,0 of 6
I34R+R100K+G103A+S107G,Ctrl,no signal,0 of 6

Nonspecific signal, from three strains lacking the peptide, appeared in 1% of pairings of all heavy chain designs, centred on 120 nM (5% of these signals below 7.0 nM); values are not corrected for it.
The range of this assay differs from that of the first round, and the authors advise against merging the two.
Of ten entries with the parent sequence, four were seen in most replicates (averages 2.2 nM to 240 nM), three in one and three in none, so single entries are noisy.

Source: Li et al. 2023 (doi:10.1038/s41467-023-39022-2), MIT Lincoln Laboratory and A-Alpha Bio; data file from the FLAb repository.